# Experimental data from article PMC10786919, “Design-rules for stapled peptides with in vivo activity and their application to Mdm2/X antagonists” (Nature Communications, 2024).
# Protein sequences, listed by entry. Tags and fused reporters are not part of them. Chains listed by the source or under a name are the forms on record and can include a tag or linker.
# UniProt Q00987, with tags, fused parts or gaps: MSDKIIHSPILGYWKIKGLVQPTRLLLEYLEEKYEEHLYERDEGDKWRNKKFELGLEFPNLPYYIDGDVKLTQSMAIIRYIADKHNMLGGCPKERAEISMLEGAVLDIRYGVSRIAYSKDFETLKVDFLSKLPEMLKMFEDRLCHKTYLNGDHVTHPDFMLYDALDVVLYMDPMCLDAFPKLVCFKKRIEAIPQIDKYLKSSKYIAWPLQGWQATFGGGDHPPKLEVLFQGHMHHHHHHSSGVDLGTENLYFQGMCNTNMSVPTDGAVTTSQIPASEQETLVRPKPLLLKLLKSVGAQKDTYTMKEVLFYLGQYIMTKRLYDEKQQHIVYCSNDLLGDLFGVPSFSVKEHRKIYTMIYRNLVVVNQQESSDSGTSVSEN
# Like-named read-outs stand apart in the source and are kept apart here.
# How the values were obtained:
# [1] = Nanoclick permeability assay
# [2] = Experimental LogD (partition coefficient)
# HCT116 cells = assay: Lactate dehydrogenase (LDH) release assay; assay type: cell-based
# [3] = Lactate dehydrogenase (LDH) release assay; assay type: cell-based
# [4] = Solubility assay (kinetic solubility, PBS pH 7); assay type: physicochemical; conditions: for solubility kinetic: kinetic from dmso stock
# EPSA = assay type: physicochemical
# human Mdm2 1–125 = target: T1, human Mdm2 1–125 (Homo sapiens, UniProt Q00987); assay: Mdm2 binding by competitive fluorescence anisotropy assay (FP binding)
# T1 construct: GST (N); His6 (internal); TEV cleavage site (ENLYFQG) (internal); made in house; host or cells: BL21 (DE3) Rosetta T1R Escherichia coli
# [5] = Circular dichroism (CD) helicity; assay type: physicochemical
# Procedure: A total of 5 µL of the 10 mM stock peptide was mixed with 45 µL of 100% methanol, and dried for 2 h in the SpeedVac concentrator (Thermo Scientific). The dried peptide was reconstituted in a buffer (1 mM Hepes pH 7.4 and 5% methanol) to a concentration of 1 mM. The peptide sample was placed in a quartz cuvette with a path length of 0.2 cm. The peptide concentration was determined by the absorbance of the peptide at […]. The CD spectrum was recorded from 300 to 190 nm using the Chirascan-plus qCD machine (Applied Photophysics, Surrey, UK), at 25 °C. All experiments were done in duplicates. The CD spectrum was converted to mean residue ellipticity before deconvolution and estimation of the secondary structure components of the peptide using the CDNN software (distributed by Applied Photophysics). Measurements were taken at least twice and were reported as arithmetic means.
# [6] = tested on: p53 responsive β-lactamase reporter in HCT116 cells; assay type: cell-based
# [7] = tested on: Jump-In T-REx CHO-K1 BLA cells; assay type: cell-based
# Procedure: This assay was based on Jump-In™ T-REx™ CHO-K1 BLA cells containing a stably integrated β-lactamase under the control of an inducible cytomegalovirus (CMV) promoter. Cells were maintained in Dulbecco’s […] Eagle Medium (DMEM) with 10% fetal bovine serum (FBS), Blasticidin, and Penicillin/Streptomycin and then transferred to 1.5 ml freezing vials and stored under liquid nitrogen in growth media containing 5% DMSO. […] Cells were seeded into a 384-well plate at a density of 4000 cells per well. Peptides were then dispensed to each well using a liquid handler, ECHO 555 and incubated for 16 h. The final working concentration of DMSO was 0.5%. β-lactamase activity was detected using the ToxBLAzer Dual Screen (Invitrogen), as per the manufacturer’s instructions. Measurements were carried out using the Envision multiplate reader (Perkin–Elmer). Counterscreen activity was defined as the amount of β-lactamase activity induced by tetracycline. Measurements were taken a minimum of three times (biological replicates) and values are reported as geometric means of the replicates.
# [8] = tested on: CellSensor p53RE-bla HCT-116 Cell Line
# [9] = FP binding assay KD, Tween-20 <CMC
# [10] = 0% FBS 4Hr, read-out: p53 reporter assay EC50
# [11] = 0% FBS 16Hr, read-out: p53 reporter assay EC50
# [12] = 10% FBS 4Hr, read-out: p53 reporter assay EC50
# [13] = 10% FBS 16Hr, read-out: p53 reporter assay EC50
# [14] = read-out: Cell EC50 (16 hr, 10% FBS), p53 reporter assay, 16 hr, 10% FBS
# [15] = 0% FBS 4Hr, read-out: LDH: Cytotoxicity assay EC50
# [16] = 0% FBS 16Hr, read-out: LDH: Cytotoxicity assay EC50
# [17] = 10% FBS 4Hr, read-out: LDH: Cytotoxicity assay EC50
# [18] = 10% FBS 16Hr, read-out: LDH: Cytotoxicity assay EC50
# [19] = 0% FBS 4Hr, read-out: TETCHO: Counterscreen EC50
# [20] = 0% FBS 16Hr, read-out: TETCHO: Counterscreen EC50
# [21] = 10% FBS 4Hr, read-out: TETCHO: Counterscreen EC50
# [22] = 10% FBS 16Hr, read-out: TETCHO: Counterscreen EC50
# [23] = 4 hours, 0% serum, read-out: TETCHO Counterscreen EC50
# [24] = 4 hours, 0% serum, read-out: LDH Cytotoxicity assay EC50
Structure (SMILES),logD [2],"solubility kinetic ([4]; aqueous buffer, pH 7, PBS) [µM]",Kd (human Mdm2 1–125; Binding KD) [µM],Kd (human Mdm2 1–125; [9]) [µM],CD % Helicity [5] [%],p53 reporter assay % Effect ([6]; 0% FBS 4Hr) [%],"EC50 [6, 10] [µM]",p53 reporter assay % Effect ([6]; 0% FBS 16Hr) [%],"EC50 [6, 11] [µM]",p53 reporter assay % Effect ([6]; 10% FBS 16Hr) [%],"EC50 [6, 13] [µM]",LDH: Cytotoxicity assay % Effect (HCT116 cells; 0% FBS 4Hr) [%],LDH: Cytotoxicity assay % Effect (HCT116 cells; 10% FBS 16Hr) [%],"EC50 [3, 15] [µM]","EC50 [3, 18] [µM]",TETCHO: Counterscreen % Effect ([7]; 0% FBS 4Hr) [%],"EC50 [7, 19] [µM]",TETCHO: Counterscreen % Effect ([7]; 10% FBS 16Hr) [%],"EC50 [7, 22] [µM]","EC50 [7, 23] [µM]",also measured
CC(=O)N[C@@H](CCCCN=[N+]=[N-])C(=O)NCCC(=O)N[C@@H](CC(C)C)C(=O)N[C@H](C(=O)N[C@@H](C)C(=O)N[C@]1(C)CCCCCCC=CCCC[C@@](C)(C(=O)N[C@@H](CO)C(=O)N[C@@H](C)C(=O)N[C@@H](C)C(N)=O)NC(=O)[C@H](CC(C)C)NC(=O)[C@H](CCC(N)=O)NC(=O)[C@H](C)NC(=O)[C@H](Cc2c[nH]c3ccccc23)NC(=O)[C@H](Cc2ccc(O)cc2)NC(=O)[C@H](CCC(=O)O)NC1=O)[C@@H](C)O [MP-624],2.5,150,,,,,,,,,,,,,,,,,,,"cell entry EC50 [1]: 0.569 µM; LDH: Cytotoxicity assay: % Effect (HCT116 cells; 0% FBS 4Hr): -4.364%; LDH: Cytotoxicity assay: % Effect (HCT116 cells; 0% FBS 16Hr): 13.34%; LDH: Cytotoxicity assay: % Effect (HCT116 cells; 10% FBS 4Hr): 1.301%; LDH: Cytotoxicity assay: % Effect (HCT116 cells; 10% FBS 16Hr): 7.342%; EC50 ([3]; 0% FBS 4Hr, read-out: LDH: Cytotoxicity assay: EC50): > 50.7 µM; EC50 ([3]; 0% FBS 16Hr, read-out: LDH: Cytotoxicity assay: EC50): > 50.7 µM; EC50 ([3]; 10% FBS 4Hr, read-out: LDH: Cytotoxicity assay: EC50): > 50.7 µM; EC50 ([3]; 10% FBS 16Hr, read-out: LDH: Cytotoxicity assay: EC50): > 50.7 µM; EPSA (EPSA): 196 A^2"
"CC(C)C[C@@H](NC(=O)[C@@]1(C)CCCC=CCCC[C@@](C)(NC(=O)[C@@H](C)NC(=O)[C@@H](Cc2ccc(O)cc2)NC(=O)[C@@H](Cc2c[nH]c3cc(F)ccc23)NC(=O)[C@@H](C)NC(=O)[C@H](N)[C@H](C)O)C(=O)N[C@H](Cc2ccc(C(F)(F)F)cc2)C(=O)N[C@H](CCC(=O)O)C(=O)N[C@H](CCCCN)C(=O)N1)C(=O)N[C@H](CCCNC(=N)N)C(N)=O [MP-769, ^dPMI-d(6-10 staple), reference compound]",,,0.12,0.118,38.54,107.8,10.1,137.7,20,9.47,> 50.4,88.97,117.4,15.3,12.6,90.98,10.7,19.05,> 50.4,11,"p53 reporter assay % Effect ([6]; 10% FBS 4Hr): 42.39%; EC50 [6, 12]: 36.8 µM; Cell EC50 (16 hr, 10% FBS), p53 reporter assay ([6]; 16 hr, 10% FBS): inactive; EC50 [6, 14]: > 50 µM; logD ([2]; not stated, Partition Coeff LogD): 2.27; LDH: Cytotoxicity assay % Effect (HCT116 cells; 0% FBS 16Hr): 92.27%; LDH: Cytotoxicity assay % Effect (HCT116 cells; 10% FBS 4Hr): 89.76%; EC50 [3, 16]: 12.7 µM; EC50 [3, 17]: 21.1 µM; solubility kinetic ([4]; pH 7, aqueous buffer, pH 7, PBS): 74 µM; TETCHO: Counterscreen % Effect ([7]; 0% FBS 16Hr): 119.8%; EC50 [7, 20]: 17.9 µM; TETCHO: Counterscreen % Effect ([7]; 10% FBS 4Hr): 8.564%; EC50 [7, 21]: > 50.4 µM"
"CC(C)C[C@H]1NC(=O)[C@@H](CCCCN)NC(=O)[C@@H](CCC(=O)O)NC(=O)[C@@H](Cc2ccc(C(F)(F)F)cc2)NC(=O)[C@@H](CC(N)=O)NC(=O)[C@@](C)(NC(=O)[C@@H](Cc2ccc(O)cc2)NC(=O)[C@@H](Cc2c[nH]c3cc(F)ccc23)NC(=O)[C@@H](C)NC(=O)[C@H](N)[C@H](C)O)CCCCCCC=CCCC[C@](C)(C(N)=O)NC(=O)[C@@H](CC(C)C)NC1=O [MP-770, ^dPMI-d(5-12 staple), reference compound]",,,,,31.76,118.4,13.6,74.34,17.4,61.04,30.8,-0.5142,4.487,> 50.7,> 50.7,57.28,15.6,-10.46,> 50.4,> 50,"EPSA (physchem): 223 A^2; p53 reporter assay % Effect ([6]; 10% FBS 4Hr): 36.59%; EC50 [6, 12]: 39.1 µM; Partition Coeff LogD [2]: Poorly Behaved; LDH: Cytotoxicity assay % Effect (HCT116 cells; 0% FBS 16Hr): -2.565%; LDH: Cytotoxicity assay % Effect (HCT116 cells; 10% FBS 4Hr): -0.7512%; EC50 [3, 16]: > 50.7 µM; EC50 [3, 17]: > 50.7 µM; EC50 [3, 24]: > 50 µM; Solubility [4]: P.B.; Solubility ([4]; pH 7, PBS): Poorly Behaved; TETCHO: Counterscreen % Effect ([7]; 0% FBS 16Hr): 22.59%; EC50 [7, 20]: > 50.4 µM; TETCHO: Counterscreen % Effect ([7]; 10% FBS 4Hr): -9.087%; EC50 [7, 21]: > 50.4 µM"
CC(=O)N[C@@H](C(=O)N[C@H](C)C(=O)N[C@H](Cc1c[nH]c2cc(F)ccc12)C(=O)N[C@H](Cc1ccc(O)cc1)C(=O)N[C@@]1(C)CCCC#CC#CCCCC[C@](C)(C(=O)N[C@H](C)C(=O)N[C@H](C)C(=O)N[C@H](C)C(=O)N[C@H](C)C(=O)N[C@H](C)C(=O)N[C@H](C)C(N)=O)NC(=O)[C@@H](CC(C)C)NC(=O)[C@@H](CC(C)C)NC(=O)[C@@H](CCC(N)=O)NC(=O)[C@@H](CCC(=O)O)NC(=O)[C@@H](Cc2ccc(C(F)(F)F)cc2)NC(=O)[C@@H](CC(N)=O)NC1=O)[C@H](C)O [MP-793],2.12,9,< 0.001,< 0.001,38.85,112.4,3.97,,,62.12,0.305,3.611,3.652,> 50.7,> 50.7,4.725,> 50.4,-29.66,> 50.4,> 50,"higher potency versus MP-770 ([6]; 10% serum, 16-hour assay): > 102 x; EC50 ([6]; read-out: Cell EC50 (4 hr, 0% FBS), p53 reporter assay, 4 hr, 0% FBS): 4 µM; EC50 [6, 14]: 0.3 µM; EC50 (Ca Ski cell line; read-out: Cell Proliferation assay EC50, Ca-Ski, p53 Mut, Ca-Ski): > 49.8 µM; EC50 (Ca Ski cell line; read-out: Proliferation EC50 Ca Ski (Off-target), Ca Ski): > 50 µM; EC50 [3, 24]: > 50 µM; improved cell proliferation potency compared to MP-042 ([8]; HCT116): > 2 x; EC50 ([8]; read-out: Cell Proliferation assay EC50, HCT116, p53 WT): 0.648 µM; EC50 ([8]; read-out: Proliferation EC50 HCT116 (On-target)): 0.65 µM"
